The assay addresses TAGK2 (CRK2) (Arabidopsis thaliana, UniProt Q9LJL9). As to the kind of experiment: biochemical.

The chains behind the UniProt entries cited, without tags or fusion partners. Residues count along the entry.
UniProt Q9LJL9, 2-599: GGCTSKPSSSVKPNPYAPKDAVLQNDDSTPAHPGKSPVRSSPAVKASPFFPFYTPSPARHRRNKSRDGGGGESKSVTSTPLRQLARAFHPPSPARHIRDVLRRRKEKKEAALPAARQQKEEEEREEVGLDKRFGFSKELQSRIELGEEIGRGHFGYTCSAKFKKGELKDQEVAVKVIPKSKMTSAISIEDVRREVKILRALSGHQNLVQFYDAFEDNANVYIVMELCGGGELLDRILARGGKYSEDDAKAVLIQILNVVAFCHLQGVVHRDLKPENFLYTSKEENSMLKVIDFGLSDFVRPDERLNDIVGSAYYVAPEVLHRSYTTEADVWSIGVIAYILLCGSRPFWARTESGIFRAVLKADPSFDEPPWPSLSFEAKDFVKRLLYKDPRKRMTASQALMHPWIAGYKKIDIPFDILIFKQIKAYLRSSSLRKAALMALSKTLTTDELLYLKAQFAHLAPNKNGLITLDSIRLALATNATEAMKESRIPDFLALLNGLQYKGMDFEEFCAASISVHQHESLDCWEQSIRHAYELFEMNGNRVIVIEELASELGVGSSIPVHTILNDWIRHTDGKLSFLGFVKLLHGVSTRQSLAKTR

The structures appear in SMILES notation.

Turning to `O=c1c(-c2ccc(O)cc2)coc2cc(O)cc(O)c12` [GNS, genistein], half-maximal inhibition (IC50) was put at 2.56 nM.

Values taken from PMC5645313, “Tyrosine phosphorylation of the GARU E3 ubiquitin ligase promotes gibberellin signalling by preventing GID1 degradation” (Nature Communications, 2017).
